The chains behind the UniProt entries cited, without tags or fusion partners.
UniProt P21554, whole entry: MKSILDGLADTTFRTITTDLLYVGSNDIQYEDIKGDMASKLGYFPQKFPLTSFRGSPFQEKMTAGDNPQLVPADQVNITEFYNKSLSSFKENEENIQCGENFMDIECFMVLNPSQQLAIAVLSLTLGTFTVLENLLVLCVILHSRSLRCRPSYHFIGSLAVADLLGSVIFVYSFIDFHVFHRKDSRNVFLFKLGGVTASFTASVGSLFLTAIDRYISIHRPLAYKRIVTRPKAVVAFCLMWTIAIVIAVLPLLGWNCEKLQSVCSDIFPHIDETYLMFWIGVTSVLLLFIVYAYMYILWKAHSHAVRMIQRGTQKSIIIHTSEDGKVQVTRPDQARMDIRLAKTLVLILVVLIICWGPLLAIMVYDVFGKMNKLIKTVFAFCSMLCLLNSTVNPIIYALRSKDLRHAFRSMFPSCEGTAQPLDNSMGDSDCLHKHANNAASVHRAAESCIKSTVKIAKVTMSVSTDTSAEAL

In ChEMBL document CHEMBL1147585, “Potent imidazole and triazole CB1 receptor antagonists related to SR141716” (Bioorg Med Chem Lett, 2004):

Molecular target: Cannabinoid receptor 1 (Homo sapiens, UniProt P21554)

Ki: 0.35 µM
Compound: COc1cc(Cl)ccc1-c1nc(C(=O)NC(C)C)nn1-c1ccc(Cl)cc1Cl
